In this experiment the target is human β2 adrenergic receptor (human) (UniProt P07550). Put plainly: cell-based or functional assay.

For “human Gαs short (from UniProt P63092 2-394)”, the magnitude of (-)-isoproterenol-induced GTPγS binding above the baseline, membranes of Sf9 cells expressing β2 receptor and Gαs short (% above the baseline) came to 350.

The values are drawn from patent US20070254313A1, “Gnal Splice Variant and Uses Thereof” (AstraZeneca AB, priority 2003, published 2007).
